Where two headings read alike, the source gives them in different places.
Tested on: mTORC1 activity (pS6) in Tsc2-sh hippocampal neurons
Test: mTORC1 high-content screen (mTORC1^HCA) with the Biomol collection library
[1] = Z-score of percent GFP+pS6+ neurons in compound-treated Tsc2-knockdown wells, DIV20, Biomol library screen, replica 1
[2] = Z-score of percent GFP+pS6+ neurons in compound-treated Tsc2-knockdown wells, DIV20, Biomol library screen, replica 2

Structure (SMILES): CC1(COc2ccc(CC3SC(=O)NC3=O)cc2)CCCCC1 (stereo not shown) [Ciglitazone]
- T2 Zscore (Replica 1) [1]: 0.9838
- T2 Zscore (Replica 2) [2]: 0.2294

Structure (SMILES): CC(C)NCC(O)c1ccc(N)c(C#N)c1 (stereo not shown) [Cimaterol]
- T2 Zscore (Replica 1) [1]: 0.3383
- T2 Zscore (Replica 2) [2]: 0.6592

Structure (SMILES): Clc1cccc(Cl)c1N=C1NCCN1 [Clonidine]
- T2 Zscore (Replica 1) [1]: 1.179
- T2 Zscore (Replica 2) [2]: −0.6314

Structure (SMILES): CN1CCN(C2=Nc3cc(Cl)ccc3Nc3ccccc32)CC1 [Clozapine]
- T2 Zscore (Replica 1) [1]: 0.42
- T2 Zscore (Replica 2) [2]: −0.102

Structure (SMILES): CCOC(=O)CN1C(=O)CC(C[C@@H](O)[C@@H]2C[C@@H](C)C[C@H](C)C2=O)CC1=O [Cycloheximide-N-ethylethanoate]
- T2 Zscore (Replica 1): 0.08188
- T2 Zscore (Replica 2): 1.208

Structure (SMILES): C[C@@H]1C[C@@H]([C@H](O)CC2CC(=O)NC(=O)C2)C(=O)[C@@H](C)C1 [Cycloheximide]
- T2 Zscore (Replica 1): −0.5039
- T2 Zscore (Replica 2): −0.9046

Structure (SMILES): CC1=C2C[C@H]3[C@@H](CC=C4C[C@@H](O)CC[C@@]43C)[C@@H]2CC[C@]12O[C@@H]1C[C@H](C)CN[C@H]1[C@H]2C [Cyclopamine]
- T2 Zscore (Replica 1): 0.5224
- T2 Zscore (Replica 2): 0.9421

Structure (SMILES): CC(=O)C1=C(O)[C@@H]2[C@H]3c4c[nH]c5cccc(c45)C[C@H]3C(C)(C)N2C1=O [Cyclopiazonic acid]
- T2 Zscore (Replica 1): 0.1164
- T2 Zscore (Replica 2): −0.5931

Structure (SMILES): CC1(C)C(C=C(Cl)Cl)C1C(=O)OC(C#N)c1cccc(Oc2ccccc2)c1 (stereo not shown) [Cypermethrin]
- T2 Zscore (Replica 1): 0.7689
- T2 Zscore (Replica 2): 0.9305

Structure (SMILES): C=C1[C@@H](C)[C@H]2[C@H](Cc3ccccc3)NC(=O)[C@]23OC(=O)/C=C/[C@H](O)CCC[C@@H](C)C/C=C/[C@H]3[C@@H]1O [Cytochalasin B]
- T2 Zscore (Replica 1): −0.4259
- T2 Zscore (Replica 2): −3.902

Structure (SMILES): C=C1[C@@H](C)[C@H]2[C@H](Cc3ccccc3)NC(=O)[C@]23[C@H](OC(C)=O)/C=C/[C@@](C)(O)C(=O)[C@@H](C)C/C=C/[C@H]3[C@@H]1O [Cytochalasin D]
- T2 Zscore (Replica 1): 0.7319
- T2 Zscore (Replica 2): 0.02458

Structure (SMILES): CCCCCCCCCCCCCC(=O)N[C@H](C)[C@@H](O)c1ccccc1 [D-erythro-MAPP]
- T2 Zscore (Replica 1): −3.005
- T2 Zscore (Replica 2): 0.5186

Structure (SMILES): OC[C@H]1O[C@@H](n2cnc3cc(Cl)c(Cl)cc32)[C@H](O)[C@@H]1O [DRB (Benzimidazole)]
- T2 Zscore (Replica 1) [1]: −0.1154
- T2 Zscore (Replica 2) [2]: 0.1122

Structure (SMILES): C=C1O[C@@](CO)(n2cnc3c(N)ncnc32)[C@H](O)[C@@H]1O [Decoyinine]
- T2 Zscore (Replica 1) [1]: 0.3425
- T2 Zscore (Replica 2) [2]: 0.35

Structure (SMILES): CCCCCCCCCCC1=C(C)C(=O)C(OC)=C(OC)C1=O [Decylubiquinone]
- T2 Zscore (Replica 1) [1]: 0.6423
- T2 Zscore (Replica 2) [2]: 0.4442

Structure (SMILES): C#CCN(C)C(C)Cc1ccccc1 (stereo not shown) [Deprenyl]
- T2 Zscore (Replica 1): −0.411
- T2 Zscore (Replica 2): −0.238

Structure (SMILES): CC1=NS(=O)(=O)c2cc(Cl)ccc2N1 [Diazoxide]
- T2 Zscore (Replica 1) [1]: −0.09947
- T2 Zscore (Replica 2) [2]: 1.244

Structure (SMILES): CCCC(=O)Nc1ncnc2c1ncn2[C@@H]1O[C@@H]2COP(=O)(O)O[C@H]2[C@H]1OC(=O)CCC [Dibutyrylcyclic AMP]
- T2 Zscore (Replica 1) [1]: 0.1878
- T2 Zscore (Replica 2) [2]: 1.036

Structure (SMILES): CCCC(=O)Nc1nc2c(ncn2C2O[C@H]3COP(=O)(O)O[C@@H]3[C@@H]2OC(=O)CCC)c(=O)[nH]1 (stereo partly shown) [Dibutyrylcyclic GMP]
- T2 Zscore (Replica 1): −0.05631
- T2 Zscore (Replica 2): −0.3109

Structure (SMILES): Cl.NC(=NCc1ccc(Cl)c(Cl)c1)NC(=O)c1nc(Cl)c(N)nc1N [Diehlorobenzamil • HCl]
- T2 Zscore (Replica 1): 0.3744
- T2 Zscore (Replica 2): −0.06006

Structure (SMILES): CCCCCCCCCCCCCCC[C@@H](O)[C@@H](N)CO [Dihydrosphingosine]
- T2 Zscore (Replica 1) [1]: 0.04572
- T2 Zscore (Replica 2) [2]: 1.202

Structure (SMILES): c1ccc2c(Cc3c[nH]c4ccccc34)c[nH]c2c1 [Diidolylmethane]
- T2 Zscore (Replica 1): 0.6105
- T2 Zscore (Replica 2): 0.2083

Structure (SMILES): COc1ccc([C@@H]2Sc3ccccc3N(CCN(C)C)C(=O)[C@@H]2OC(C)=O)cc1.Cl [Diltiazem • HCl]
- T2 Zscore (Replica 1) [1]: −0.3876
- T2 Zscore (Replica 2) [2]: 1.629

Structure (SMILES): CCCCCCCCCCCCCCCC(=O)OC[C@H](COP(=O)(O)O)OC(=O)CCCCCCCCCCCCCCC [Dipalmitoylphosphatidic acid]
- T2 Zscore (Replica 1): −1.633
- T2 Zscore (Replica 2): 0.5306

Structure (SMILES): OCCN(CCO)c1nc(N2CCCCC2)c2nc(N(CCO)CCO)nc(N3CCCCC3)c2n1 [Dipyridamole]
- T2 Zscore (Replica 1) [1]: 0.4593
- T2 Zscore (Replica 2) [2]: −0.1679

Structure (SMILES): CC/C=C\C/C=C\C/C=C\C/C=C\C/C=C\C/C=C\CCC(=O)O [Docosahexaenoic acid(22:6 n-3)]
- T2 Zscore (Replica 1): 1.067
- T2 Zscore (Replica 2): 0.7813

Structure (SMILES): CC/C=C\C/C=C\C/C=C\CCCCCCCCCCCC(=O)O [Docosatrienoic acid (22:3 n-3)]
- T2 Zscore (Replica 1): 0.441
- T2 Zscore (Replica 2): 0.644

Structure (SMILES): Cc1cccc(CCN2CCC(C(=O)c3ccc(NS(C)(=O)=O)cc3)CC2)n1 [E-4031]
- T2 Zscore (Replica 1): 0.2341
- T2 Zscore (Replica 2): −0.9518

Structure (SMILES): COc1cc(CNC(=O)CCCC/C=C/C(C)C)ccc1O [E-Capsaicin]
- T2 Zscore (Replica 1): −1.628
- T2 Zscore (Replica 2): 0.5971

Structure (SMILES): CCCCCCCCCCCC=CCC=CCCCC(=O)O [Eicosa-5,8-dienoic acid (20:2 n-12)]
- T2 Zscore (Replica 1): 0.878
- T2 Zscore (Replica 2): −0.2302

Structure (SMILES): CCCCC/C=C\C/C=C\CCCCCCCCCC(=O)O [Eicosadienoic acid (20:2 n-6)]
- T2 Zscore (Replica 1): −0.2059
- T2 Zscore (Replica 2): −1.688

Structure (SMILES): CC/C=C\C/C=C\C/C=C\CCCCCCCCCC(=O)O [Eicosatrienoic acid (20:3 n-3)]
- T2 Zscore (Replica 1): −0.3626
- T2 Zscore (Replica 2): 0.9257

Structure (SMILES): CCCCCCCCCCCCCCCCOCC(COP(=O)([O-])OCC[N+](C)(C)C)OC(C)=O (stereo not drawn) [Enantio-PAF C16]
- T2 Zscore (Replica 1): −1.476
- T2 Zscore (Replica 2): 0.3258

Structure (SMILES): C=CC[C@@H]1/C=C(\C)C[C@H](C)C[C@H](OC)[C@H]2O[C@@](O)(C(=O)C(=O)N3CCCC[C@H]3C(=O)O[C@H](/C(C)=C/[C@@H]3CC[C@@H](O)[C@H](OC)C3)[C@H](C)[C@@H](O)CC1=O)[C@H](C)C[C@@H]2OC [FK-506]
- T2 Zscore (Replica 1) [1]: −0.02301
- T2 Zscore (Replica 2) [2]: 0.7523

Structure (SMILES): COC(=O)c1c(C)[nH]c(C)c1C(=O)c1ccccc1Cc1ccccc1 [FPL-64176]
- T2 Zscore (Replica 1): 0.2513
- T2 Zscore (Replica 2): −0.7609

Reference: patent publication US20230218577A1, “USE OF HEAT SHOCK PROTEIN INHIBITORS FOR THE TREATMENT OF NEURODEVELOPMENTAL DISORDERS” (The Children's Medical Center Corporation, priority 2020, published 2023)
